Data on five compounds can be found in patent US20190225966A1, “Treatment for Glaucoma and Other Eye Diseases” (University of North Texas Health Science Center at Forth …, priority 2016, published 2019).

Test [1] has as its system Tg-MYOC^Y437H mice. The test is classed as in vivo.
In test [2] the test system is TM-3 cells stably expressing DsRed tagged Y437H mutant MYOC. The test can be described thus: Western blot and immunostaining of myocilin, ER stress and autophagy markers in TM cells expressing mutant myocilin. The test is classed as cell-based, Human. On the technique in general: Immunoblotting shows a protein as a band on a membrane.
The subject of test [3] is Tg-MYOC^Y437H mice. As to conditions: via enhancing myocilin secretion and reducing ER stress in TM; cited from earlier work.
The mark [4] stands for this setting: TM-3 cells expressing mutant myocilin, 24 hours, trehalose 100 mM.

For `Nc1ccc(-c2ccc3ncc4ccc(=O)n(-c5cccc(C(F)(F)F)c5)c4c3c2)cn1` [Torin-2, 9-(6-Amino-3-pyridinyl)-1-[3-(trifluoromethyl)phenyl]-benzo[h]-1,6-naphthyridin-2(1H)-one], in the test with Tg-MYOC^Y437H mice [1] (eye drops topically for 1 week, N=8, P<0.001), the “IOP versus contralateral vehicle treated eyes” value is “dramatically reduced IOP”.
For the compound `O=C(COc1ccc(Cl)cc1)N[C@H]1CC[C@H](NC(=O)COc2ccc(Cl)cc2)CC1` [ISRIB], the “mutant myocilin accumulation (Western blot)” value in test [2] (TM-5 cells stably expressing mutant myocilin, ISRIB 100 and 200 nM, 48 hours) is on record as “dramatically reduced myocilin accumulation”. Further, the “ATF4 and CHOP cellular protein levels (Western blot)” value in test [2] (TM-5 cells stably expressing mutant myocilin, ISRIB, 48 hours) was “inhibited ATF4 and CHOP”. Moreover, in the test on Tg-MYOC^Y437H mice [1] (intravitreal injection 2 mM, 2 ul, 4-months-old mice, IOP after 1 week, N=5), the “elevated IOP versus vehicle-treated contralateral eyes” value is listed as “significantly reduced elevated IOP”.
Consider `OC[C@H]1O[C@H](O[C@H]2O[C@H](CO)[C@@H](O)[C@H](O)[C@H]2O)[C@H](O)[C@@H](O)[C@@H]1O` [trehalose, Trehalose], for which, in test [2] (setting [4]), the “LC3BII form, marker of stimulated autophagy (Western blot)” value is “increased LC3BII form” and the “mutant myocilin accumulation (Western blot)” value is listed as “reduces mutant myocilin dramatically”.
In the case of `O=C([O-])CCCc1ccccc1.[Na+]` [PBA, Sodium 4-phenylbutyrate], the “mutant myocilin (Western blot for MYOC)” value in test [2] (TM-3 cells expressing mutant myocilin, PBA 1 mM, TB or TB+PBA, 24 hours) was “reduces mutant myocilin”. Besides, the “elevated IOP (inventors' earlier work, refs 2, 7)” value in the test on Tg-MYOC^Y437H mice [3] was “reduces elevated IOP”.
For the compound “Tat-Beclin 1 D11 (RRRQRRKKRGYGGDHWIHFTANWV)”, the “elevated IOP versus contralateral eye treated with TS” value in the test with Tg-MYOC^Y437H mice [1] (topical eye drops twice daily for 2 weeks, IOP weekly in the night, n=6) is listed as “reduced elevated IOP”.
